Experimental findings from ChEMBL document CHEMBL1131242, “6beta-Acetoxynortropane: a potent muscarinic agonist with apparent selectivity toward M2-receptors” (J Med Chem, 1998) are described below.

Protein sequences, listed by entry. Tags and fused reporters are not part of them. Lines headed by an entry give the natural chain unless they say otherwise; changes in a name come on top.
UniProt P09483: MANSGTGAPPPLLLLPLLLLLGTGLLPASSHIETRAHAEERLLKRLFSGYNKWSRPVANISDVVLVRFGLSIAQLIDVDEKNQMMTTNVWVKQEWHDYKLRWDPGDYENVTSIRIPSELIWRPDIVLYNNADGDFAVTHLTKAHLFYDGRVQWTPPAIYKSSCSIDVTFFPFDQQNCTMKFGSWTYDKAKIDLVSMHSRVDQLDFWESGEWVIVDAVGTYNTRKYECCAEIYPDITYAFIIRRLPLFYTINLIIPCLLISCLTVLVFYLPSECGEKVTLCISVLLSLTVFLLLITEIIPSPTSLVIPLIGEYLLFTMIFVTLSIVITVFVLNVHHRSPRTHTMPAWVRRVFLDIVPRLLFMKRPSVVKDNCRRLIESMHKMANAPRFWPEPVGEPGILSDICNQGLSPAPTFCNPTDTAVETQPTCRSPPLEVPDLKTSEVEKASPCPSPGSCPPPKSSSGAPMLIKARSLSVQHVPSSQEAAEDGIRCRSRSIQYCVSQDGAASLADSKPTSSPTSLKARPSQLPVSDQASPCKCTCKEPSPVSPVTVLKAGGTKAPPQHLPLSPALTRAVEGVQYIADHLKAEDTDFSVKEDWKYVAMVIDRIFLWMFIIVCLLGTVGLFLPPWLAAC
UniProt P12390, whole entry: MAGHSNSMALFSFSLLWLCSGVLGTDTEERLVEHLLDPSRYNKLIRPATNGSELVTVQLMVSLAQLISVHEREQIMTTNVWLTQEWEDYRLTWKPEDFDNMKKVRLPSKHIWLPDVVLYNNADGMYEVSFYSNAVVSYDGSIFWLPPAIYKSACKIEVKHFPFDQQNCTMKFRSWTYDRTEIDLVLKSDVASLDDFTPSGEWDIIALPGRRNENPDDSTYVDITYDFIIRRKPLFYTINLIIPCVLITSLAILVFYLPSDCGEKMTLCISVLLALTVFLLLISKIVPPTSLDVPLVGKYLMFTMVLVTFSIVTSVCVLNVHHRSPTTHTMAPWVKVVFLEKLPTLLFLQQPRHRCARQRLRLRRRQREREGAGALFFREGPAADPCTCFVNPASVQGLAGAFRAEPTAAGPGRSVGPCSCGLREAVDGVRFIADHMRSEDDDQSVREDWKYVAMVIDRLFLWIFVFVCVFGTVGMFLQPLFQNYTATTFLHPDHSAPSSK

Test [1] deals with T1, Neuronal acetylcholine receptor; alpha4/beta2 (Rattus norvegicus, UniProt P09483+P12390). Description: The compound was evaluated for percentage inhibition of binding of [3H]- nicotine to Nicotinic acetylcholine receptor alpha4-beta2 in Rat Cerebral Cortical Membranes. The test is classed as protein-complex assay. In short, it runs like this:
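Rat cerebral cortex membranes with 0.2 nM [3H]nicotine in HEPES binding buffer pH 7.4 containing 200 µM diisopropyl fluorophosphate. Incubation was 120 min at 0–4 °C, in triplicate. Nonspecific binding used 1 µM nicotine. Samples were filtered through polyethylenimine-soaked GF/B filters and counted.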

Test [2] has as its target T1, Neuronal acetylcholine receptor; alpha4/beta2. As to the kind of experiment: Inhibition of binding of [3H]nicotine to Nicotinic acetylcholine receptor alpha4-beta2 in rat cerebral cortical membranes at 100 uM concentration. The class given is cell membranes, Membrane. In short, it runs like this:
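[3H]nicotine (0.2 nM) binding to rat cortical membranes, with 200 µM diisopropyl fluorophosphate, 120 min at 0–4 °C, triplicate. Nonspecific binding with 1 µM nicotine. Percent inhibition at 100 µM test agent; mean ± SEM, n = 4.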

For orientation: Ki means the dissociation constant of the complex between target and ligand, obtained from inhibition or displacement. Higher therefore signals lower affinity. On to `COC(=O)C1=CCC2CCC1N2C` (configuration not stated), for which the Ki in test [1] and in test [2] was 8.9 µM each time.
